Literature values as cited in article PMC6470842 (Pharmaceutics, 2019).

Conditions: cited from earlier work

CN(CCOc1ccc(NS(C)(=O)=O)cc1)CCc1ccc(NS(C)(=O)=O)cc1 [dofetilide]
AUC increase when co-administered with cimetidine: up to 1.5 fold
